Measured values from US12594289B2, “Potentiation of antibiotic effect” (The University of North Carolina at Chapel Hill, priority 2017, dated 2026).

System: S. aureus strain HG003

Row | Compound | induction of tolerance of S. aureus to ciprofloxacin | protection of S. aureus against tobramycin killing (tobramycin tolerance)
1 | Cn1c2cccc(=O)c-2nc2ccccc21 [pyocyanin] | capable of inducing tolerance | –
2 | CCCCCCCc1cc(O)c2ccccc2[n+]1[O-] [HQNO, 2-heptyl-4-hydroxyquinoline N-oxide] | capable of inducing tolerance | full protection
